## Measured affinities in a library of Ab-95 light chain variants

Antigen: PDVDLGDISGINAS, a 14-residue peptide of the SARS-CoV-2 spike HR2 region.

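The starting antibody came from a phage panning campaign against this peptide. The library (AAYL52) carries one to three amino acid substitutions per variant, with no insertions or deletions. The assay is AlphaSeq: two haploid yeast populations carry antibody and antigen on their surface. The frequency of each diploid, read from paired DNA barcodes, reflects how well the two displayed proteins bind. Each replicate has its own calibration line, from reference interactions of the BCL2 family. Mating was done three times.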

Each scFv is VH, a (GGGGS)3 linker, VL, as in the parent Ab-95, and differs from it in the CDRs of the light chain only.
VH: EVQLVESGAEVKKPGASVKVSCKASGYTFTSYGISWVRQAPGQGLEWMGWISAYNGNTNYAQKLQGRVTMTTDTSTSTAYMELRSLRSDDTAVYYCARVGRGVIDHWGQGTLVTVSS
VL: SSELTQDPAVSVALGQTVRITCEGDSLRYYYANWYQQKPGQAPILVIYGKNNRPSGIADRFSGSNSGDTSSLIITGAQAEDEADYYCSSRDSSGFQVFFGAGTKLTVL

Positions count from residue 1 of the parent VL; K50W puts W in place of K.
Scale: log10 of Kd in nM, estimated from mating counts; low values are strong binders.
A pair that was not seen in that replicate is written "ND"; this usually means weak binding, but a binder can also be missed.
For reference, the parent read 2.31 as the reference entry and 2.25 as a member of this library.
As a blank, each scFv also met three strains without target: over library AAYL52, 28% of these pairings were detected, typically at 3.91 and seldom below 2.90. Also given: how often the same scFv was detected with the empty control strains, with their mean in brackets.

| # | changes | replicates, log10 nM | signal with controls |
|---|---|---|---|
| 1 | K50W G94H V97T | 3.70 / ND / ND | 3 of 9 (3.07) |
| 2 | Y30W S93E Q96N | 2.63 / 2.34 / 2.55 | 4 of 9 (4.50) |
| 3 | E23A L27T Y29R | 3.65 / 3.15 / 4.15 | 4 of 9 (3.77) |
| 4 | L27K Y30S S89G | 3.53 / 2.94 / 3.13 | 3 of 9 (4.11) |
| 5 | A32L P54C S92T | 2.65 / 2.86 / 4.13 | 4 of 9 (3.88) |
| 6 | E23V F98I | 2.68 / 2.36 / 2.43 | 5 of 9 (3.74) |
| 7 | G24C R53E P54S | 3.38 / ND / ND | 1 of 9 (3.97) |
| 8 | N51E S89F | 3.73 / 4.68 / ND | 3 of 9 (3.73) |
| 9 | G24A R28Y S93L | ND / 4.42 / 4.37 | 4 of 9 (3.92) |
| 10 | Y31I R90W S93V | 3.20 / 3.48 / 2.93 | 2 of 9 (3.72) |
| 11 | Y30L N33I N52Q | 4.44 / ND / 3.48 | 3 of 9 (3.89) |
| 12 | Y31A P54N S93V | 3.33 / 2.98 / 3.49 | 3 of 9 (3.99) |
| 13 | G49Y V97H F98D | ND / 2.95 / ND | 1 of 9 (2.96) |
| 14 | D25T Y30W S92L | 3.43 / 3.21 / 3.21 | 1 of 9 (4.23) |
| 15 | V97C | 3.29 / ND / ND | 2 of 9 (3.64) |
| 16 | Y30I S55E S93G | 3.83 / ND / 3.17 | 1 of 9 (5.16) |
| 17 | A32I G49I K50I | 4.22 / ND / ND | 0 of 9 |
| 18 | L27C N52Y V97K | 4.25 / ND / ND | 2 of 9 (3.70) |
| 19 | Y31F G49T Q96P | ND / ND / ND | 4 of 9 (4.13) |
| 20 | N52A V97N F98D | 2.84 / 3.09 / 3.06 | 2 of 9 (4.95) |
| 21 | L27S G49F S88R | ND / 3.46 / ND | 1 of 9 (4.68) |
| 22 | Y30N S55V F98V | 0.92 / 1.14 / 0.47 | 0 of 9 |
| 23 | L27P P54C Q96T | 4.18 / 3.80 / 4.44 | 3 of 9 (3.92) |
| 24 | A32L P54A R90Q | ND / ND / 3.29 | 3 of 9 (3.76) |
| 25 | R28G D91H V97N | 2.73 / 4.46 / 2.00 | 1 of 9 (2.72) |
| 26 | R53H D91T S92G | 4.20 / ND / ND | 4 of 9 (3.94) |
| 27 | D25S P54R S55N | 3.26 / ND / ND | 0 of 9 |
| 28 | S55H S93K | 3.01 / 3.02 / 1.89 | 1 of 9 (4.13) |
| 29 | E23P V97M | ND / ND / ND | 1 of 9 (3.89) |
| 30 | S89Y Q96T | 2.81 / 2.81 / 2.40 | 6 of 9 (4.25) |

Excerpt, the first 2 entries:

| changes | replicates, log10 nM | signal with controls |
|---|---|---|
| K50W G94H V97T | 3.70 / ND / ND | 3 of 9 (3.07) |
| Y30W S93E Q96N | 2.63 / 2.34 / 2.55 | 4 of 9 (4.50) |

Reference: Engelhart et al. 2022, doi:10.1038/s41597-022-01779-4. File: FLAb, binding data.